Measurements: patent publication US7141546B1, “CRFR2 selective ligands” (priority 2001, dated 2006)
Where a chain is given by its changes, count along the chain named.

The chains behind the UniProt entries cited, without tags or fusion partners. Residues count along the entry.
UniProt P35353, 24-415: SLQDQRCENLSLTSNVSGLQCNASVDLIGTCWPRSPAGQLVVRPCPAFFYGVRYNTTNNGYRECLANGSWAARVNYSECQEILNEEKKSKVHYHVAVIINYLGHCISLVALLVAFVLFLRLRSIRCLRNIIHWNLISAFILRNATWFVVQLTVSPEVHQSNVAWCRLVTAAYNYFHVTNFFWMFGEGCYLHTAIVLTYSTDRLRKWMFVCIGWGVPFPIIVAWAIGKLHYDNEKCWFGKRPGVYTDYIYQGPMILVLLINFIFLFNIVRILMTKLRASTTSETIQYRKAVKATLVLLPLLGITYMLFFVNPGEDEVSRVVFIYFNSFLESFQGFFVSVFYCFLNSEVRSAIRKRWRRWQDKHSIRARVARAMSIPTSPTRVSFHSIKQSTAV

Experiments:
human CRFR2b = molecular target: T1, human CRFR2b (Homo sapiens, UniProt Q13324); assay: Competitive displacement binding assay, stably transfected CHO cells expressing human CRFR2b; details: in words; binding to CRFR2 compared with CRFR1
T1 construct: expressed in transfected cells
T1 sequence (Q13324 1-438 isoform Q13324-2): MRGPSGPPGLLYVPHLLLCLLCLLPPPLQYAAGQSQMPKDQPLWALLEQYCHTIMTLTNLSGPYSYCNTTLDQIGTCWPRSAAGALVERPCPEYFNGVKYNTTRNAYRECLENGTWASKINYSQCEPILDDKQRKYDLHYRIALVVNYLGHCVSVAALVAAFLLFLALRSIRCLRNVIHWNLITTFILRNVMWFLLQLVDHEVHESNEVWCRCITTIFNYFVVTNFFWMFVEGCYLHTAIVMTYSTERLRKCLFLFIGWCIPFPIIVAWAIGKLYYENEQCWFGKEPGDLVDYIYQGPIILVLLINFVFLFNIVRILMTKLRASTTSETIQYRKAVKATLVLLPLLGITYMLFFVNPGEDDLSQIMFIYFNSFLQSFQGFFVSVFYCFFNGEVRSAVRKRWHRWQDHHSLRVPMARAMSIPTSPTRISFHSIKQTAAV
Protocol: CRF receptors have now been cloned and are disclosed in the aforementioned Chen et al. article, in Perrin, M., et al., P.N.A.S, 92, 2969–2973 (March 1995), and in Lovenberg, T., et al., P.N.A.S., 92, 836–840 (January 1995). Binding affinity is a term used to refer to the strength of interaction between ligand and receptor. […] Ki (inhibitory binding affinity constant) is determined using a “standard” or “tracer” radioactive ligand and thus measures the displacement of the tracer from the receptor or binding protein; it is most properly expressed with reference to such tracer. However, so long as these assays are carefully performed under specific conditions with relatively low concentrations of receptor or the like, the calculated Ki will be substantially the same as its dissociation constant KD. […] It is particularly efficient to test for Ki because only a single tracer need be labelled, e.g. radioiodinated. […] Those reported hereinafter are derived using radioactively labeled [Tyr Glu^1, Nle^17]-Svg as a radioligand.
(§1) Binding assays with cells expressing human CRFR1 are carried out as described in the Chen et al. P.N.A.S., supra. The affinities of test peptides for CRFR1 and CRFR2b stably expressed in CHO cells were determined by competitive displacement of ^125I-(Nle^21, Tyr^32) ovine CRF (for CRFR1) or of [^125I-Tyr^o-]Ucn (for CRFR2b) as described.

CRFR1 [1] = molecular target: T2, CRFR1 (Homo sapiens, UniProt P34998); assay: cAMP accumulation in CHO cells stably transfected with CRFR1 and treated with CRF; format: cell-based
T2 construct: expressed in transfected cells
T2 sequence (P34998 24-415): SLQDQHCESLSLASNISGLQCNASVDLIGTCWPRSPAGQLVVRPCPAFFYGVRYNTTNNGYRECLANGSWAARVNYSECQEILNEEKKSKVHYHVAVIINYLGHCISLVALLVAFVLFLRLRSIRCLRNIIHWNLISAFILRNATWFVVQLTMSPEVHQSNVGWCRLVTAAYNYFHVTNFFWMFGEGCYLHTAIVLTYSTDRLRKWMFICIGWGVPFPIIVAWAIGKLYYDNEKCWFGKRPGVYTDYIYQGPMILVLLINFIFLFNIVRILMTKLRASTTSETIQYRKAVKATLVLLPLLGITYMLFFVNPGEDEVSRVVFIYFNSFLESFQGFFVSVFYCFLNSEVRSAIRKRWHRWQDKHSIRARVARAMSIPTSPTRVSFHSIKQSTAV
Description: In addition to inhibiting CRF receptor binding, a candidate's CRF receptor antagonist activity may be established by the ability of the compound to antagonize an activity associated with CRF. For example, CRF is known to stimulate various biochemical processes, including adenylate cyclase activity. Therefore, compounds may be evaluated as CRF antagonists by their ability to antagonize CRF-stimulated adenylate cyclase activity by, for example, measuring cAMP levels. The inhibition of CRF-stimulated adenylate cyclase activity, determined by the assay described by G. Battaglia et al., Synapse 1:572 (1987), provides an assay for determining a compound's ability to antagonize CRF activity. Accordingly, CRF receptor antagonist activity may be determined by assay techniques which generally include an initial binding assay followed by such a cAMP screening protocol.
as §1

CRFR1 [2] = molecular target: T3, CRFR1 (Rattus norvegicus, UniProt P35353); details: Ruhmann et al. P.N.A.S. 95 (1998); cited from earlier work
T3 sequence (P35353 24-415): T2 sequence (P34998 24-415) with H6R, S9N, A13T, I16V, M153V, G163A, I209V, Y229H, H356R

CRFR2β = details: Ruhmann et al. P.N.A.S. 95 (1998); cited from earlier work

(cyclo 31–34)[Ac-D-2Nal^11, His^12, CML^13,39, Nle^17, Glu^31, Lys^34]-sauvagine(11–40) [Example 6]
binding selectivity, CRFR2 versus CRFR1 (human CRFR2b): very good selectivity
antagonism of CRF activity with respect to CRFR1 (cAMP accumulation) (CRFR1 [1]): little or no effect

(cyclo 31–34)[Ac-D-3 Pal^11, His^12, CML^13,39, Nle^17, Glu^31, Lys^34]-sauvagine(11–40) [Example 7]
binding selectivity, CRFR2 versus CRFR1 (human CRFR2b): very good selectivity
antagonism of CRF activity with respect to CRFR1 (cAMP accumulation) (CRFR1 [1]): little or no effect

(cyclo 31–34)[Ac-D-Cpa^11, His^12, CML^13,39, Nle^17, Glu^31, Lys^34]-sauvagine(11–40) [Example 5]
binding selectivity, CRFR2 versus CRFR1 (human CRFR2b): very good selectivity
antagonism of CRF activity with respect to CRFR1 (cAMP accumulation) (CRFR1 [1]): little or no effect

(cyclo 31–34)[Ac-D-Leu^11, His^12, CML^13,39, Nle^17, Glu^31 Lys^34]-sauvagine(8–40) [Example 3]
binding selectivity, CRFR2 versus CRFR1 (human CRFR2b): very good selectivity
antagonism of CRF activity with respect to CRFR1 (cAMP accumulation) (CRFR1 [1]): little or no effect

(cyclo 31–34)[Ac-D-Phe^11, His^12, CML^13,39, Nle^17, Glu^31, Orn^34]-sauvagine(11–40) [Example 8]
binding selectivity, CRFR2 versus CRFR1 (human CRFR2b): very good selectivity
antagonism of CRF activity with respect to CRFR1 (cAMP accumulation) (CRFR1 [1]): little or no effect

(cyclo 31–34)[Ac-D-Tyr^11, His^12, CML^13,39, Nle^17, Glu^31, Lys^34]-sauvagine(11–40) [Example 4]
binding selectivity, CRFR2 versus CRFR1 (human CRFR2b): very good selectivity
antagonism of CRF activity with respect to CRFR1 (cAMP accumulation) (CRFR1 [1]): little or no effect

[D-Phe^11, His^12]-sauvagine (11–40)
competitive antagonism relative to the then best antagonist, CRFR1 (CRFR1 [2]): about 30%
competitive antagonism relative to the previously best reported compound, CRFR2β (CRFR2β): close to equal antagonism
